Reference: PubChem BioAssay AID1053197 (The Scripps Research Institute Molecular Screening Center, 2014)
This is a selection; strong and weak results do not stand in their true shares. The source made the active and inactive calls.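 How the source made its calls: active means inhibition above a cutoff: mean of compounds within the control limits plus 3 SD of those (cut at about 17% in these data); inactive means the rest.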

Chains of the proteins cited; added tags and fusions are not shown. Lines headed by an entry give the natural chain unless they say otherwise; changes in a name come on top.
UniProt Q9HAT2: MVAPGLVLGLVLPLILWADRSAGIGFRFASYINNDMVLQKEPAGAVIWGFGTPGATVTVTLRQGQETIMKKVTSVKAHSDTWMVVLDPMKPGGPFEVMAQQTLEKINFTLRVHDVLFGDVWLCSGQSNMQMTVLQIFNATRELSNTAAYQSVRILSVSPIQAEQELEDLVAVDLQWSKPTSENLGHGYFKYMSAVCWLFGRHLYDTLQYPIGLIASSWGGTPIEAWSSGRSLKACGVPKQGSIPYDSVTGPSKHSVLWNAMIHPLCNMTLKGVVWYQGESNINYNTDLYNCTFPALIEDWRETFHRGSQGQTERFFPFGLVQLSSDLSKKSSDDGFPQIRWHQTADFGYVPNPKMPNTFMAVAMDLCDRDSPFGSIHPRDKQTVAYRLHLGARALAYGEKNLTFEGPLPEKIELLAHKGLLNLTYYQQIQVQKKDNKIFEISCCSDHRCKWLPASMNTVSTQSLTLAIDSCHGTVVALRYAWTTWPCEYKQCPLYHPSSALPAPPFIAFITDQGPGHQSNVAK

biological target: Sialate O-acetylesterase (Homo sapiens) (UniProt Q9HAT2); assay: human SIAE inhibitors, primary screen, biochemical, fluorescence polarization, FP-Rh probe, 1536-well HTS (AID 1053197); details: SIAE FP-Rh probe binding, at 9.66 µM, hits give high values;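 further: 0% = plate median of compound wells and 100% = probe without SIAE protein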

**Q.** `O=C(O)COc1ccc([As](=O)(O)O)cc1[N+](=O)[O-]` was tested. Which inhibition did it give?
**A.** inactive: 0.82%

**Q.** Which inhibition does the source give for `Nc1ccccc1[As](=O)(O)c1ccccc1` here?
**A.** inactive: -3.57%

**Q.** How did the inhibition turn out when `O=P(Nc1nccs1)(Oc1ccccc1)Oc1ccccc1` was run?
**A.** inactive: -7.13%

**Q.** Which inhibition does the source give for `CCOP1(=S)c2c(C)nn(CCC#N)c2N=C(c2ccccc2F)N1C` (centres undefined) here?
**A.** inactive: -2.03%

**Q.** With `CN(C(=O)Cc1ccc(Cl)c(Cl)c1)[C@H]1CC[C@@]2(CCCO2)C[C@@H]1N1CCCC1` as the molecule, how does the inhibition read?
**A.** inactive: -7.12%

**Q.** For `O=[N+]([O-])c1ccc2c(c1)nnn2O`, which inhibition is on record?
**A.** inactive: 1.54%

**Q.** How did the inhibition turn out when `CN(C)C(=O)c1cc([N+](=O)[O-])cc2c1-c1c(cc([N+](=O)[O-])cc1[N+](=O)[O-])C2=O` was run?
**A.** inactive: -2.91%

**Q.** For `CCOP1(=S)c2c(C)nn(CCC#N)c2N=C(c2ccc(F)cc2)N1C` (centres undefined), which inhibition is on record?
**A.** inactive: 4.29%

**Q.** For `CN(C(=O)Cc1ccccc1)[C@@H]1CC[C@]2(CCCO2)C[C@H]1N1CCCC1`, which inhibition is on record?
**A.** inactive: 0.33%

**Q.** Which inhibition does the source give for `N#CCCN(C(=O)COC(=O)C(O)(c1ccccc1)c1ccccc1)c1ccc(F)cc1` here?
**A.** inactive: -1%

**Q.** Which inhibition does the source give for `NC(=O)Nc1ccc([As](=O)(O)O)cc1` here?
**A.** inactive: 5.84%

**Q.** How did the inhibition turn out when `Cc1cccc(OCC(=O)OC2CN3CCC2CC3)c1` (centres undefined) was run?
**A.** inactive: -0.67%

**Q.** `O=[As](O)(c1cccc(O)c1)c1cccc(O)c1` was tested. Which inhibition did it give?
**A.** inactive: -0.84%

**Q.** For `CS(=O)(=O)c1ccc(Cl)c(NC(=O)COC(=O)C(O)(c2ccccc2)c2ccccc2)c1`, which inhibition is on record?
**A.** inactive: -1.23%

**Q.** Which inhibition does the source give for `O=[As](O)(O)c1cccnc1` here?
**A.** inactive: -3.35%

**Q.** For `COc1cc(C(=O)NCC2(N3CCOCC3)CCCCC2)cc(Cl)c1OC(C)C`, which inhibition is on record?
**A.** inactive: -11.6%

**Q.** For `O=C(OC1CN2CCC1CC2)c1ccc(Cl)cc1` (centres undefined), which inhibition is on record?
**A.** inactive: -3.43%

**Q.** How did the inhibition turn out when `CCOP(=O)(Nc1cccc2ccccc12)OCC` was run?
**A.** inactive: 5.52%

**Q.** For `COc1cc(C2NCCC3(OCCO3)C2(C)C)cc(OC)c1OC` (centres undefined), which inhibition is on record?
**A.** inactive: 15.6%

**Q.** How did the inhibition turn out when `CCCOP(=S)(Nc1nc(N)cc(=O)[nH]1)OCCC` was run?
**A.** inactive: -2.86%

**Q.** `Cc1ccc(NCCc2c([N+](=O)[O-])cc([N+](=O)[O-])cc2[N+](=O)[O-])cc1` was tested. Which inhibition did it give?
**A.** active: 31.8%

**Q.** How did the inhibition turn out when `Nc1cccc2c([As](=O)(O)O)cccc12` was run?
**A.** active: 34.4%

**Q.** `CC(C)(C)C(=O)NC(Sc1ncccn1)C(Cl)(Cl)Cl` (centres undefined) was tested. Which inhibition did it give?
**A.** inactive: 1.17%

**Q.** With `Clc1n[nH]nc1-c1nn[nH][15n]1` as the molecule, how does the inhibition read?
**A.** inactive: -11.4%

**Q.** Which inhibition does the source give for `O=P1(N(CCCl)CCCl)NCCC(C(F)(F)F)O1` (centres undefined) here?
**A.** inactive: -8.37%

**Q.** Which inhibition does the source give for `CCOP(=O)(Nc1ccc(C)cn1)OCC` here?
**A.** inactive: -9.55%

**Q.** Which inhibition does the source give for `CN(CCCl)Cc1cc(Cl)c(NC2=NCCN2)c(Cl)c1` here?
**A.** inactive: -2.37%

**Q.** How did the inhibition turn out when `CCOP(=O)(NC(=NC(C)c1ccccc1)NC(C)c1ccccc1)OCC` (centres undefined) was run?
**A.** inactive: 1.72%

**Q.** With `CCC1=CC2Cc3nc4ccc(Cl)cc4c(N)c3C(C1)C2` (centres undefined) as the molecule, how does the inhibition read?
**A.** inactive: -0.78%

**Q.** For `O=P1(Nc2ccccn2)COc2ccccc2OC1`, which inhibition is on record?
**A.** inactive: 0.15%

**Q.** For `CC1(CBr)Cn2c(nc3ccccc3c2=O)S1` (centres undefined), which inhibition is on record?
**A.** inactive: 1.12%

**Q.** Which inhibition does the source give for `CN(C(=O)Cc1ccc(Cl)c(Cl)c1)C1CCCC[C@@H]1N1CCCC1` (some centres undefined) here?
**A.** inactive: -5.46%

**Q.** Which inhibition does the source give for `CN(C(=O)Cc1ccc(Cl)c(Cl)c1)[C@@H]1CCCC[C@H]1N1CCCC1` here?
**A.** inactive: -2.62%

**Q.** With `CC(C)/C=N\N=C(\N)N[N+](=O)[O-]` as the molecule, how does the inhibition read?
**A.** inactive: 5.87%

**Q.** With `COc1ccccc1CNC(=O)COC(=O)C(O)(c1ccccc1)c1ccccc1` as the molecule, how does the inhibition read?
**A.** inactive: 1.53%

**Q.** How did the inhibition turn out when `CCCC1OP(=O)(Nc2ccccc2)OCC1CC` (centres undefined) was run?
**A.** inactive: 0.07%

**Q.** Which inhibition does the source give for `O=C(/C=C/c1ccccc1)OC1CN2CCC1CC2` (centres undefined) here?
**A.** inactive: 2.07%

**Q.** With `CN(C)C1(CNC(=O)c2ccc(S(C)(=O)=O)cc2)CCCCC1` as the molecule, how does the inhibition read?
**A.** inactive: 3.32%

**Q.** Which inhibition does the source give for `Cc1ccc(C(=O)OC2CN3CCC2CC3)cc1` (centres undefined) here?
**A.** inactive: 10.5%

**Q.** With `CC1CCC(C(C)C)C(OP(=O)(Nc2ccccn2)c2ccccc2)C1` (centres undefined) as the molecule, how does the inhibition read?
**A.** inactive: -2.7%

**Q.** For `Cc1nn(-c2ccccc2)c2c1P(=O)(N1CCOCC1)N(C)C(c1ccccc1)=N2` (centres undefined), which inhibition is on record?
**A.** inactive: -0.31%

**Q.** `Cc1ccc(OCC(=O)OC2CN3CCC2CC3)cc1` (centres undefined) was tested. Which inhibition did it give?
**A.** inactive: 0.16%

**Q.** `O=[As](O)(c1cccs1)c1cccs1` was tested. Which inhibition did it give?
**A.** inactive: -4.29%

**Q.** With `NS(=O)(=O)c1cccc(NC(=O)COC(=O)C(O)(c2ccccc2)c2ccccc2)c1` as the molecule, how does the inhibition read?
**A.** inactive: -4.85%

**Q.** `O=P1(Nc2ccc(Br)cn2)COc2ccccc2OC1` was tested. Which inhibition did it give?
**A.** inactive: 4.1%

**Q.** Which inhibition does the source give for `Nc1cccc([As](=O)(O)c2ccccc2)c1` here?
**A.** inactive: 3.55%

**Q.** How did the inhibition turn out when `O=P1(Nc2ncccn2)COc2ccccc2OC1` was run?
**A.** inactive: -0.68%

**Q.** Which inhibition does the source give for `Cc1ccc(S(=O)(=O)N(CCCN)CCCc2c(C)nc(N)[nH]c2=O)cc1` here?
**A.** inactive: 5.48%

**Q.** `Cc1cc(SC(NC(=O)c2ccccc2)C(Cl)(Cl)Cl)nc(C(C)C)n1` (centres undefined) was tested. Which inhibition did it give?
**A.** inactive: 3.4%

**Q.** Which inhibition does the source give for `CCCCOc1ccc(C(=O)NCC2(N3CCCCC3)CCCCC2)cc1OC` here?
**A.** inactive: 10.9%

**Q.** Which inhibition does the source give for `COP(=O)(OC)N1CC1c1ccccc1` (centres undefined) here?
**A.** inactive: 6.19%

**Q.** For `CC1CCNP(=O)(N(CCCl)CCCl)O1` (centres undefined), which inhibition is on record?
**A.** inactive: -0.57%

**Q.** How did the inhibition turn out when `O=C(O)C(O)c1ccc(N(CCCl)CCCl)cc1` (centres undefined) was run?
**A.** inactive: -2.41%

**Q.** Which inhibition does the source give for `CCOC(=O)Nc1ccc([As](=O)(O)O)c(O)c1` here?
**A.** inactive: 7.88%

**Q.** Which inhibition does the source give for `O=[N+]([O-])c1ccc(Nc2ccc(Oc3ccc([N+](=O)[O-])cc3[N+](=O)[O-])cc2)c([N+](=O)[O-])c1` here?
**A.** inactive: -5.49%

**Q.** With `Cc1cc(SC(NC=O)C(Cl)(Cl)Cl)ncn1` (centres undefined) as the molecule, how does the inhibition read?
**A.** inactive: 2.97%

**Q.** How did the inhibition turn out when `O=P(Nc1ccccn1)(c1cccc2ccccc12)c1cccc2ccccc12` was run?
**A.** inactive: -6.35%

**Q.** How did the inhibition turn out when `CCOC(=O)Nc1cccc([As](=O)(O)O)c1` was run?
**A.** inactive: 2.87%

**Q.** How did the inhibition turn out when `O=C(Nc1ccncc1[N+](=O)[O-])c1ccc([N+](=O)[O-])cc1[N+](=O)[O-]` was run?
**A.** inactive: 1.18%

**Q.** For `O=C(COc1ccccc1)OC1CN2CCC1CC2` (centres undefined), which inhibition is on record?
**A.** inactive: -4.99%

**Q.** Which inhibition does the source give for `O=C(O)C(=O)c1ccc(N(CCCl)CCCl)cc1` here?
**A.** inactive: -1.21%

**Q.** How did the inhibition turn out when `COC(=O)C1(C)COP(=O)(N2CCCC2)OC1` (centres undefined) was run?
**A.** inactive: -1%

**Q.** For `COP1(=S)c2c(C)nn(CCC#N)c2N=C(c2ccc(F)cc2)N1C` (centres undefined), which inhibition is on record?
**A.** inactive: 15.9%

**Q.** `CCC(C)N(CC(C)C)C(=S)SC(NC(C)=O)C(Cl)(Cl)Cl` (centres undefined) was tested. Which inhibition did it give?
**A.** inactive: -4.77%
